Earlier results on two molecules are cited in paper PMC7618119.

This data set relates to P-glycoprotein. The settings on record: 2007, Yu et al., 2018, cited from earlier work; for P-glycoprotein substrate: ref Dagenais et al., 2004, Kalvass et al., F. Martins et al., 2023.

Only a part of the results on these compounds is given; other tests are left out.

As to `CCC(=O)N(c1ccccc1)C1CCN(CCc2ccccc2)CC1`, the P-glycoprotein substrate result is “substrates for P-glycoprotein-mediated extrusion from the brain”.
As for `CCC(=O)N(c1ccccc1)C1(COC)CCN(CCn2nnn(CC)c2=O)CC1`, the P-glycoprotein substrate result is on record as “substrates for P-glycoprotein-mediated extrusion from the brain”. In addition, the “Increase in brain levels” value (pharmacological blockade or genetic deletion of P-glycoprotein, ref Kalvass et al.) is given as “threefold”.
